{"source": "patent US4683230A", "about": "“BMY-28121, a new antitumor antibiotic” (Bristol-Myers Company, priority 1985, dated 1987)", "key": {"[1]": {"tested_on": "Staphylococcus epidermidis D153", "type": "cell-based", "details": "nutrient agar, 10^4 CFU/ml"}, "Escherichia coli NIHJ": {"tested_on": "Escherichia coli NIHJ", "type": "cell-based", "details": "nutrient agar, 10^4 CFU/ml"}}}
{"smiles": "CC1(C)S[C@@H]2[C@H](NC(=O)[C@H](N)c3ccccc3)C(=O)N2[C@H]1C(=O)O", "note": "[Ampicillin]", "values": [{"measurement": "MIC", "setting": "[1]", "result": 0.2, "unit": "µg/mL"}, {"measurement": "MIC", "setting": "Escherichia coli NIHJ", "result": 0.2, "unit": "µg/mL"}]}
